Experimental data: patent US11999727B2 (Tango Therapeutics, Inc., priority 2020, dated 2024)

Tested on: HAP1 MTAP-deleted cell line
Assay: SDMA in-cell western assay, HAP1 MTAP-deleted
Type: cell-based
Conditions: IC50 ratio HAP1 MTAP-intact / HAP1 MTAP-deleted
Excerpt: Table 1 also indicates IC50 values in an MTAP-isogenic cell line pair for exemplary compounds in an SDMA in-cell western assay (columns 7-8). HAP1 MTAP-intact is a cell line in which endogenous levels of MTAP are expressed, and HAP1 MTAP-deleted is an MTAP-null cell line.

SMILES: Cc1cc(NC(=O)C(=O)N2C[C@@H](C)CC[C@@H]2c2ccc3sc(CCN(C)C)nc3c2)cnc1N (single isomer, unassigned) [Compound 1279]
- MTAP intact/ deleted ratio: C (an IC50 ratio of less than 3 fold)
